According to patent US7094873 (University of Texas, dated 2006):

Assays:
[1] = target: T1, 35S-labeled, in vitro translated hCHIP (43-kD S-tagged fusion from vector pCITE-4a) (human, UniProt Q9UNE7 1-303, 35S-methionine labeled); experiment: GST on beads with 35S-labeled hCHIP, autoradiography
T1 construct: Made in rabbit reticulocyte lysate; not shown: S-tag and vector-encoded residues of pCITE-4a
T1 sequence: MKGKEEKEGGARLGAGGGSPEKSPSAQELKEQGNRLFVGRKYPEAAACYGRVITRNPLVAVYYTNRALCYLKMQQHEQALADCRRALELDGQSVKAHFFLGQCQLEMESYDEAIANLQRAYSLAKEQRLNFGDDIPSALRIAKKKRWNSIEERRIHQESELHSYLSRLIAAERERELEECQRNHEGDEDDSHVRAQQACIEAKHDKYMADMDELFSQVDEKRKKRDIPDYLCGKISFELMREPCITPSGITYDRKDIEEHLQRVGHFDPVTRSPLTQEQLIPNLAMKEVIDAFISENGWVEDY

[2] = target: T2, Bovine Hsc70 (Stressgen) (bovine); experiment: GST pulldown on glutathione-Sepharose beads, immunoblot
T2 construct: also called purified Hsc70

[3] = target: Human Hsp70 (Stressgen) (human); experiment: as above

binding result [1]: no binding
binding result [2]: no binding
binding result [3]: no binding
B1: GST alone (plasmid pGEX-2T) (other, UniProt P08515 1-218, looked up)
chain: MSPILGYWKIKGLVQPTRLLLEYLEEKYEEHLYERDEGDKWRNKKFELGLEFPNLPYYIDGDVKLTQSMAIIRYIADKHNMLGGCPKERAEISMLEGAVLDIRYGVSRIAYSKDFETLKVDFLSKLPEMLKMFEDRLCHKTYLNGDHVTHPDFMLYDALDVVLYMDPMCLDAFPKLVCFKKRIEAIPQIDKYLKSSKYIAWPLQGWQATFGGGDHPPK
notes: Control protein; also called GST itself
